# This is a selection; strong and weak results do not stand in their true shares. Active and inactive are the calls of the source.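 How the source made its calls: active means mean activation above the mean of solvent-only control wells plus 3 SD (cut at about 22% in these data); inactive means the rest.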
# Test: GAA30 FXN promoter activators, confirmation, counter-screen for GAA850 frataxin promoter activator project, cell-based, luminescence, HEK293, lucGAA30, triplicate (AID 588350);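 further: counterscreen of GAA850 promoter hits where activity marks nonselective or luminescence artifacts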
# Conditions: HEK293 lucGAA30 FXN promoter luciferase, 24 h; at 6 µM; active compounds read high; DMSO = 0%, 5 µM ipriflavone = 100%
row,SMILES,activation
1,CC(=O)NC(SC(=S)N(C)C)C(Cl)(Cl)Cl (configuration not stated),active: 27.9%
2,CCc1nc2c(n1)c1c(non1O)c1c2no[n+]1[O-],active: 44.7%

# Reference: PubChem BioAssay AID588350 (The Scripps Research Institute Molecular Screening Center, 2011)
